Two substances from patent US6559164B1, “Substituted pyrroles suitable for continuous infusion” (Hoffmann-La Roche Inc., priority 1999, dated 2003) can be followed below.

The nature of data set [1]: Stability in solution for intravenous administration (release of 3-(1-methyl-3-indolyl)-4-(1-methyl-6-nitro-3-indolyl)-1H-pyrrole-2,5-dione). As to conditions: 72 hours at room temperature in a mixture of acetonitrile and saline or dextrose water; parent pyrrole-2,5-dione detected. In kind it is physicochemical. As for the experimental part: “Stability” is an overall assessment of the ability of a compound of formula I to withstand degradation in a typical solution used for the administration of drugs intravenously. Specifically, it refers to the ability of any given compound of formula I to release 3-(1-methyl-3-indolyl)-4-(1-methyl-6-nitro-3-indolyl)-1H-pyrrole-2,5-dione, over a 72 hour period in a mixture of acetonitrile and saline or dextrose water. The
“stability” of a compound of formula I is “very good” if the less than 1% 3-(1-Methyl-3-indolyl)-4-(1-methyl-6-nitro-3-indolyl)-1H-pyrrole-2,5-dione is detected, “good” if less than 2.5% 3-(1-Methyl-3-indolyl)-4-(1-methyl-6-nitro-3-indolyl)-1H-pyrrole-2,5-dione is detected, and “fair” if less than 5% 3-(1-Methyl-3-indolyl)-4-(1-methyl-6-nitro-3-indolyl)-1H-pyrrole-2,5-dione is detected after 72 hours incubation at room temperature.

A short description of data set [2]: Plasma conversion (degradation in plasma to the active metabolite). As to conditions: @ 30 min; human or rodent plasma at 37° C.; percent degradation. In kind it is in vitro ADME. The procedure:
“Plasma conversion” with respect to compounds of formula I means the degradation (enzymatic and/or non-enzymatic) of such compound in human or rodent plasma at 37° C. from 30 minutes to 6 hours to give 3-(1-methyl-3-indolyl)-4-(1-methyl-6-nitro-3-indolyl)-1H-pyrrole-2,5-dione, a pharmaceutically active metabolite of compounds of formula I, as well as pharmaceutically active metabolites thereof. This conversion is typically given as the percent degradation over a specified time frame.

On to “O-[2-[[2,5-dihydro-3-(1-methyl-1H-indol-3-yl)-4-(1-methyl-6-nitro-1H-indol-3-yl)-2,5-dioxo-2,5-dihydro-pyrrol-1-yl]methoxycarbonyl]ethyl]-O′-methylpolyethylene glycol 2000 [Example 3b]”, for which the Stability entry in data set [1] was “Good”. In addition, the “Plasma Conversion” value in data set [2] turned out to be 80% @ 30 min.

Consider “O-[2-[[4-[[[2,5-Dihydro-3-(1-Methyl-1H-indol-3-yl)-4-(1-methyl-6-nitro-1H-indol-3-yl)-2,5-dioxo-1H-pyrrol-1-yl]methoxy]carbonyl]-1-piperidinyl]carbonyl]ethyl]-O′-methylpolyethylene Glycol 1000 [Example 13]”, for which the Stability entry in data set [1] is “Good”.
